# Antibody variant affinities, Ab-14 light chain, assay B

Values reported by Li et al. 2023, doi:10.1038/s41467-023-39022-2 (FLAb copy).

Antigen: PDVDLGDISGINAS, a 14-residue peptide of the SARS-CoV-2 spike HR2 region.

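Phage display of a naive human antibody library on the peptide gave the parent. These sequences belong to a second round, designed from the earlier measurements on random variants of the parent. Their group label is 14L_GP_HC (GP: Gaussian process model; HC: hill climbing; a sequence that several methods proposed may carry one label only). The scFvs were displayed on barcoded MATa yeast, the peptide on MATalpha yeast. Pairs that bind mate more often; barcode pairs of the diploids are counted by sequencing. A regression on co-assayed BCL2-family reference pairs converts the normalised counts of each replicate to an apparent Kd. There are six technical replicates.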

The variants keep the heavy chain, the linker and the frameworks of Ab-14 (scFv order VH, three GGGGS repeats, VL).
VH: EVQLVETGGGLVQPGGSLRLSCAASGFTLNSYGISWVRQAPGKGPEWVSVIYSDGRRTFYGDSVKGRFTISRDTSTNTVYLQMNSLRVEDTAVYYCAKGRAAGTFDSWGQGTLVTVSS
VL: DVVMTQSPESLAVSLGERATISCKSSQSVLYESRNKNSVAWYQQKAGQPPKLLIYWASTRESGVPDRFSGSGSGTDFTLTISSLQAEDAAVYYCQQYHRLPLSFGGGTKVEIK

Each variant is given by its three light chain CDRs, as the data file delimits them; those of the parent are KSSQSVLYESRNKNSVA, WASTRES, QQYHRLPLS.
Affinities are written as log10 Kd with Kd in nM; a lower number is a better binder.
"ND" marks a missing value. The strain was present, yet no cells mated with the target were sequenced in that replicate, which points to weak or no binding.
In the paper, a design with two or fewer of six values counts as a poor binder.

CDR-L1 | CDR-L2 | CDR-L3 | replicates, log10 nM | empty controls
HLSWVSLYESRNKNSVA | NASTRES | QQYHRLPLS | 0.31 / 0.10 / -0.03 / -0.09 / 0.09 / 0.24 | 3 of 18 (2.85)
KQSQSYLYESVNKNSVA | DASTRES | QQYHRLPLS | 1.62 / 0.46 / 0.55 / 1.25 / 0.55 / ND | 0 of 18
KSSISYLYESENKSSVA | EASQRES | QQYHRLPLS | 1.17 / 1.79 / 1.93 / 2.75 / 1.88 / 1.67 | 0 of 18
KSSQSWLYESRNKNSVA | GASARES | QQYHRLPLS | 0.17 / -0.12 / -0.06 / -0.14 / 0.19 / 0.07 | 1 of 18 (1.77)
KQSQEKLYESRNKNNVA | DASTREQ | QQYHRLPLS | 0.54 / 0.61 / -0.06 / 0.02 / 0.40 / 0.07 | 0 of 18
KLRQSGNYESRNKNSVA | NASTRES | QIYHRLPLS | 1.62 / 1.57 / 1.35 / 1.54 / 0.61 / 0.67 | 2 of 18 (2.02)
KSSQSVMGEQRNKNSVA | DISTRES | QQYHRLPLS | 0.63 / 0.56 / 0.69 / 1.17 / 0.81 / 0.63 | 0 of 18
KSSFSYLGEKRNKNSVA | EASTRES | QQYHRLPLS | 0.03 / -0.13 / -0.18 / -0.33 / -0.10 / 0.00 | 2 of 18 (2.28)
KSSQSVLSQSRNKNSVA | DASTRES | QQYHRLPLS | 0.58 / 0.72 / 0.64 / 0.64 / 0.84 / 0.68 | 1 of 18 (2.49)
KVSQSVLYESGTKNSVA | NASTRES | QQYHRLPLS | 0.42 / 0.22 / 0.50 / 0.28 / 0.34 / 0.43 | 1 of 18 (2.83)
KLRQSELYESRNKNSVA | QASTRES | QQYHRLPLT | 0.46 / 0.24 / 0.23 / 0.29 / 0.24 / 0.21 | 0 of 18
KMPQGVLYESRNKNSVA | GASTRES | QQYHRLPLS | -0.17 / -0.38 / -0.21 / -0.36 / -0.40 / -0.30 | 2 of 18 (2.64)
KSSISVLYESGNKNSVA | EASQRES | QQYHRLPLS | 0.76 / 0.39 / 0.36 / 1.08 / 0.32 / 0.47 | 1 of 18 (2.66)
KLEQSRDYESRNKNSVA | NASTRES | QQYHRLPLS | 0.13 / 0.22 / 0.35 / 0.16 / 0.03 / 0.11 | 1 of 18 (1.56)
KSSQSYLYESGNKNSVA | QASTRES | QQYHRLPLS | 0.22 / 0.05 / -0.04 / -0.14 / -0.06 / 0.01 | 1 of 18 (1.48)
KSSPSYLYESRNKNSVA | EASTREQ | QQYHRLPLS | -0.13 / -0.18 / -0.21 / -0.13 / -0.14 / -0.05 | 1 of 18 (3.03)
KSSQSFLYESLWKNSVA | GASQRES | QQYHRLPLS | 0.55 / 0.29 / 0.58 / 0.45 / 0.45 / 0.52 | 0 of 18
KSSQSWLYESRNFWSVA | DASTRES | QQYHRLPLS | 0.69 / 0.16 / 0.52 / 1.30 / 0.60 / 1.80 | 0 of 18
SLMQSWLYESRNKNSVA | HASLRED | QQYHRLPLS | 0.37 / 0.28 / 0.07 / 0.32 / 0.44 / 0.40 | 0 of 18
KWSQSVLGEQRNKNSVA | DISTRES | QQYHRLPLS | -0.23 / -0.18 / -0.39 / -0.64 / -0.17 / -0.19 | 0 of 18
KVSISYLLESRNKNSVA | NASTRES | QQYHRLPLS | 0.13 / -0.08 / -0.50 / 0.80 / 0.49 / 0.77 | 0 of 18
KSSWSWLYESRNKNSVA | DASTRES | QQYHRLPLS | -0.59 / -0.21 / -0.24 / -0.41 / -0.74 / -0.31 | 0 of 18
KLLQSVLYESRNFNSVA | HASTRED | QQYHRLPLS | -0.03 / -0.27 / 0.28 / -0.92 / -0.05 / -0.15 | 0 of 18
KSSISTLYESRNTNSVA | EASTRES | QQYHRLPLS | 0.17 / 0.40 / 0.42 / 0.12 / 0.69 / 0.50 | 0 of 18
KSGQGWLYESRNKNSVA | GASQRES | QQYHRLPLS | -0.29 / -0.27 / -0.38 / -0.49 / -0.35 / -0.20 | 1 of 18 (3.30)
KSSGSWLYESRNKNSVA | GASTREN | QQYHRLPLS | -0.16 / -0.47 / -0.07 / -0.02 / -0.57 / -0.21 | 0 of 18
KLSKSVLFESRNKNSVA | NASTRES | QQYHRLPLS | 0.14 / -0.08 / -0.21 / -0.26 / -0.28 / -0.05 | 1 of 18 (3.12)
KSSQSVLMESRNANSVA | EASTRES | QQYHRLPLS | 0.78 / 0.61 / 0.43 / 0.51 / 0.64 / 0.85 | 3 of 18 (2.91)
KSSQSVLYESGNKNSVA | EASTRED | QQYHRLPLS | 1.18 / 0.49 / 0.50 / 0.65 / 0.60 / 1.01 | 3 of 18 (2.54)
KSSQSVLSEPRNKNSVA | DASTRES | QQYHRLPLS | 0.03 / 0.02 / -0.02 / -0.13 / -0.10 / -0.09 | 1 of 18 (2.28)
IFSQSVLMESRNKNSVA | DASTRES | QQYHRLPLS | -0.31 / -0.30 / -0.38 / -0.49 / -0.52 / -0.25 | 2 of 18 (2.30)
KHPQGVLYESRNKNSVA | GASTRES | QQYHRLPLS | ND / ND / ND / 1.53 / 1.37 / 1.25 | 0 of 18
KLRQSILYESRNKNSVA | NASTRES | QIYHRLPLS | 0.33 / 0.16 / 0.26 / 0.40 / 0.29 / 0.09 | 1 of 18 (2.80)
KSSQSWLYESRNKNSVA | EASTREN | QQYHRLPLS | -0.21 / -0.42 / -0.35 / -0.40 / -0.35 / -0.18 | 2 of 18 (3.93)
KSSMSHLYESRNKNSVA | GASTRES | QQYHRLPLS | 0.57 / 0.86 / 1.16 / 0.86 / 0.88 / 0.92 | 1 of 18 (2.39)
LSSPSYLYESPNKNSVA | EASTRES | QQYHRLPLS | 0.61 / 0.97 / 0.66 / 0.82 / 0.63 / 0.68 | 1 of 18 (2.46)
KLPQSTLYESRNQNSVA | NASTRES | QQYHRLPLS | -0.06 / -0.03 / -0.27 / -0.11 / -0.13 / 0.02 | 1 of 18 (2.34)
KSSQSFLYESRNPNSVA | GASTRES | QQYHRLPLS | -0.19 / -0.36 / -0.17 / 0.14 / -0.74 / -0.43 | 0 of 18
KYYPSDLYESRNKNSVA | QASTRES | QQYHLLPLS | 1.38 / 0.49 / 0.91 / 0.87 / 1.20 / 0.63 | 0 of 18
KVRQSTLYESRNKNSVA | DASTRES | QQYHRLPLS | -0.23 / -0.18 / -0.27 / -0.23 / -0.35 / -0.10 | 1 of 18 (4.26)
KWSQSFLYESRNVNSVA | GASTRDS | QQYHRLPLS | 0.64 / 0.47 / -0.37 / -0.15 / -0.18 / -0.17 | 0 of 18
KSSKSVLFESRNKNSVA | NASTRES | QQYHRLPLS | 1.91 / 1.69 / 1.02 / 1.57 / 1.32 / 1.03 | 0 of 18
LSSISYLYESPNKNSVA | EASTRMS | QQYHRLPLS | 0.81 / 0.61 / 0.32 / 0.30 / 0.47 / 0.55 | 1 of 18 (3.07)
KSSPSVLYESHNKNSVA | DASTRMS | QQYHRLPLS | -0.24 / -0.32 / -0.32 / -0.43 / -0.33 / -0.16 | 3 of 18 (2.47)
KQSQSVDFESRNKNSVA | DASTRES | QQYHRLPLS | 0.07 / 0.09 / -0.03 / -0.34 / 0.08 / 0.14 | 1 of 18 (2.10)
KLQQQDLYESRNKNSVA | SASTREE | QQYHRLPLS | -0.19 / 0.00 / -0.37 / -0.39 / -0.15 / 0.24 | 0 of 18
KLSQSVLYESGNKNSVA | DASTRES | YQYHRLPSS | 1.74 / 1.96 / 1.04 / 1.39 / 1.27 / 1.61 | 2 of 18 (2.98)
KSSNSGLYESRMKNSVA | EASTRES | QQYHRLPLS | 0.59 / 0.47 / 0.33 / 0.41 / 0.22 / 0.57 | 5 of 18 (2.93)
KSQQSVLYESRNKNNVA | HASTRED | QQYERLPLS | -0.35 / -0.47 / -0.67 / -0.35 / -0.76 / -0.36 | 0 of 18
KVRQSHLYESRNKNSVA | NASTRES | QQYHRLPLS | -0.28 / -0.27 / -0.34 / -0.14 / -0.06 / 0.13 | 0 of 18

Extract of 8 entries:

| CDR-L1 | CDR-L2 | CDR-L3 | replicates, log10 nM | empty controls |
|---|---|---|---|---|
| KSSQSWLYESRNKNSVA | EASTREN | QQYHRLPLS | -0.21 / -0.42 / -0.35 / -0.40 / -0.35 / -0.18 | 2 of 18 (3.93) |
| KSSQSFLYESRNPNSVA | GASTRES | QQYHRLPLS | -0.19 / -0.36 / -0.17 / 0.14 / -0.74 / -0.43 | 0 of 18 |
| KLPQSTLYESRNQNSVA | NASTRES | QQYHRLPLS | -0.06 / -0.03 / -0.27 / -0.11 / -0.13 / 0.02 | 1 of 18 (2.34) |
| IFSQSVLMESRNKNSVA | DASTRES | QQYHRLPLS | -0.31 / -0.30 / -0.38 / -0.49 / -0.52 / -0.25 | 2 of 18 (2.30) |
| KLRQSILYESRNKNSVA | NASTRES | QIYHRLPLS | 0.33 / 0.16 / 0.26 / 0.40 / 0.29 / 0.09 | 1 of 18 (2.80) |
| KSSPSVLYESHNKNSVA | DASTRMS | QQYHRLPLS | -0.24 / -0.32 / -0.32 / -0.43 / -0.33 / -0.16 | 3 of 18 (2.47) |
| KSQQSVLYESRNKNNVA | HASTRED | QQYERLPLS | -0.35 / -0.47 / -0.67 / -0.35 / -0.76 / -0.36 | 0 of 18 |
| KSSQSVLYESGNKNSVA | EASTRED | QQYHRLPLS | 1.18 / 0.49 / 0.50 / 0.65 / 0.60 / 1.01 | 3 of 18 (2.54) |

The parent sequence was in this pool as ten entries: three were never detected, three once, and four in most replicates, with averages from 0.34 to 2.37.
Values of this round are not directly comparable with the first-round values of the same sequences.
Nonspecific signal, from three strains lacking the peptide, appeared in 4% of pairings of all light chain designs, centred on 2.64 (5% of these signals below 1.59); values are not corrected for it. For each scFv, signals with the empty controls are counted beside the result, with their mean in brackets.